An excerpt weighted towards active compounds, which were near 3.7% of everything screened.
IL2 activator = activators of IL-2. IL-2 activation reporter assay, cell-based qHTS; stimulated with anti-CD3/CD4/CD28 beads; in transgenic mouse T cells. activation, % (series mostly up to about 46 µM). 0.065% of 360,000 active; in the data active = activation above about 50%; inconclusive = mostly about 30% to 49%; note: 0% is about no effect
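First, unstimulated transgenic mouse T cells were exposed to compound for 60 min. Next, anti-CD3/anti-CD4-coated beads with anti-CD28 were added. Finally, after 18 h at 37 degrees C, EGFP and DsRed were imaged.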
miR-21 reporter = miR-21 reporter, rising signal; HeLa miR-21 FLuc reporter, luciferase, 48 h; Potency, µM (titrated, usually from 38.3 µM), for the others: at the top dose reporter change, positive = more light; 340,000 tested, under 10 active; AID 2288; active = well fitted rising curve with a large enough effect; inconclusive = small, poorly fitted or top-dose-only effect; inactive = no such curve, though single readings can be large or run the other way;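 also: % of control where 0% means no effect; miR-21 action dims this reporter so a rising signal means less miR-21 action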
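Using DMEM plus 10% FBS, HeLa miR-21-FLuc cells are incubated with test compounds (final up to about 40uM) for 48 hours; firefly luciferase signal is then imaged following reagent-mediated lysis.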
A549 viability = A549 cytotoxicity, counter-screen for Nrf2 inhibitors | A549 ARE-Fluc cells, CellTiter-Fluor viability, 18-24 h | Potency, µM (titrated, usually from 46 µM), inactives show at the top dose activity change, negative = cytotoxicity, most hits filed as inhibitors | 0.16% of 390,000 active; note: potency is the fitted concentration of half-maximal effect; % is set by controls: 0 for no effect and ±100 for the full control effect
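Cytotoxicity counterscreen: CellTiter-Fluor fluorescence was measured in A549 ARE_Fluc cells after 18-24 h of compound exposure in a concentration series. The subsequent BugLite luminescent read reports ARE-luciferase activity.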
Nrf2 activator = activates Nrf2 signaling; AREc32 ARE-luciferase reporter (MCF7-derived line), luminescence, 24 h; Potency, µM (highest dose often 46.1 µM), for inactives: at the top dose activation, hits mostly activators; 0.31% of 410,000 active; AID 624171; note: potency is the fitted concentration of half-maximal effect; % of control where 0% means no effect; nearly all actives have a fitted effect of over 65% in size
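AREc32 cells carrying an ARE-driven firefly luciferase reporter were seeded at 1000 cells/well in OPTI-MEM with 5% FBS, then exposed to compound for 24 hr at 37 deg C. Luminescence was read with Steady-Glo after 30 min at RT.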
Nrf2 block = inhibitors of Nrf2 signaling. A549 ARE-Fluc reporter, luciferase luminescence, 18-24 h. Potency, µM (series often up to 46 µM), without a hit: at the top dose activity change, negative = inhibition, most hits filed as inhibitors. 2.1% of 360,000 active; note: potency is the fitted concentration of half-maximal effect; % is set by controls: 0 for no effect and ±100 for the full control effect; nearly all actives have a fitted effect of over 60% in size
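A549 ARE_Fluc cells (5000/well, 5% FBS OPTI-MEM) pre-incubated 2 h, then treated with compounds 18-24 h at 37C/5% CO2 in concentration-response. CellTiter-Fluor viability read first; BugLite luciferase luminescence after 15 min at room temperature gives Nrf2 activity.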
ClpP mod = qHTS Assay for Activators of ClpP | Potency, µM (titrated, usually from 57.5 µM), for the others: at the top dose activity change, negative = active | 1.9% of 340,000 active | ATP-dependent Clp protease proteolytic subunit (Bacillus subtilis (strain 168)), P80244 | AID 651965, 2013 | purified B. subtilis ClpP, FRET peptide cleavage, 20 min; active = well fitted falling curve with a large enough effect; inconclusive = small, poorly fitted or top-dose-only effect; inactive = no such curve, though single readings can be large or run the other way; note: potency is the fitted concentration of half-maximal effect; the source files actives as falling curves though it sought activators and does not explain the sign; nearly all actives have a fitted effect of over 65% in size
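FRET quenching reversal measured ClpP activation: 10 microg/mL B. subtilis ClpP at pH 8 with the FRET-FV decapeptide, read at 430 nm after 320 nm excitation. The 20-min minus 0-min signal was scaled between DMSO/no-enzyme wells and ADEP (5.8 microM final).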
* marks the source's active call; other numbers are inactive results; u = inconclusive; x = no result. Unless noted, calls come from the whole dose curve; as a rule, active = well fitted curve in the direction sought with a large enough effect; inconclusive = small, poorly fitted or top-dose-only effect, or another doubt; inactive = no such curve, though single readings can be large; an effect the other way counts as inactive or inconclusive.

The line under a structure holds: IL2 activator	Nrf2 block	Nrf2 activator	miR-21 reporter	ClpP mod	A549 viability
- Cc1ccc(NC(=O)CSc2nnc(-c3ccc([N+](=O)[O-])cc3)o2)c(C)c1
→ x	9%	-1%	-7%	-2%	8%
- O=c1c2ccccc2nc2n1CCN2
→ -2	4%	0%	-4%	16µM*	-6%
- O=C1CCc2cc(S(=O)(=O)Nc3cccc(F)c3)ccc2N1
→ x	u	x	x	x	0%
- COc1ccc(NC(=O)CN(Cc2ccccc2)S(=O)(=O)c2ccc(C)cc2)cc1Cl
→ x	u	5%	21%	-5%	3%
- Cc1ncc(CO)c(/C=N/NC(=O)c2cc3c(s2)CCCC3)c1O
→ 0	23µM*	-1%	18%	-24%	-8%
- Cc1ncc(CO)c(/C=N/NC(=O)c2ccoc2C)c1O
→ -1	u	2%	x	25µM*	2%
- COc1ccccc1NC(=O)C(=O)NCCc1csc(-c2cccc(F)c2)n1
→ x	x	0%	1%	-3%	u
- COc1ccc(-c2csc(NC(=O)CSCC(=O)Nc3cc(C)on3)n2)cc1
→ 1	5%	6%	x	-1%	0%
- COc1ccc(-c2csc(NC(=O)CSCc3c(C)noc3C)n2)c(OC)c1
→ -1	16µM*	6%	x	u	-15%
- O=C(Nc1scc(-c2ccc(Br)cc2)c1C(=O)O)c1ccccc1F
→ 0	10µM*	-1%	x	x	-11%
- Cc1ccccc1C(=O)Nc1scc(-c2ccc(Br)cc2)c1C(=O)O
→ -1	8.2µM*	-2%	x	0%	-25%
- CC(=O)c1sc(Nc2cccc3ccccc23)nc1C
→ 1	12%	12%	x	0%	17%
- COC(=O)c1ccsc1NC(=O)CCS(=O)(=O)c1ccc(Cl)cc1
→ -2	3%	16µM*	x	-4%	-2%
- COC(=O)c1ccsc1NC(=O)CCS(=O)(=O)c1ccccc1
→ -3	-15%	13µM*	7%	2%	-3%
- CC(=O)c1sc(NC(=O)CCS(=O)(=O)c2ccccc2)nc1C
→ -5	21µM*	u	11%	-9%	u
- COC(=O)c1ccsc1NC(=O)CS(=O)(=O)c1ccccc1
→ 1	-13%	-1%	x	-1%	-1%
- CC(=O)c1sc(NC(=O)CCS(=O)(=O)c2ccc(F)cc2)nc1C
→ -3	x	u	x	-10%	x
- CC(=O)c1sc(Nc2ccccn2)nc1C
→ -1	u	11µM*	-30%	-11%	14%
- O=C(NNC(=O)c1sc2cccc(Cl)c2c1Cl)Nc1ccccc1
→ 1	u	0%	-7%	0%	-14%
- O=C(NNC(=O)c1sc2cccc(Cl)c2c1Cl)NC1CCCCC1
→ 2	9.2µM*	-1%	-6%	-6%	-12%
- CC(C)C(c1nnnn1Cc1ccccc1)N(CCCO)Cc1cc2cc3c(cc2[nH]c1=O)OCO3 (centres undefined)
→ 0	-10%	1%	-15%	32µM*	0%
- CCC(c1nnnn1Cc1ccc(OC)cc1)N(CCCO)Cc1cc2cc3c(cc2[nH]c1=O)OCO3 (centres undefined)
→ -1	4%	2%	-1%	22µM*	-1%
- CCC(c1nnnn1Cc1ccccc1)N(Cc1ccco1)Cc1cc2cc(OC)ccc2[nH]c1=O (centres undefined)
→ 2	u	10%	-19%	-17%	-13%
- Cc1ccc2[nH]c(=O)c(CN(CCc3ccccc3)C(c3nnnn3Cc3ccco3)C(C)C)cc2c1 (centres undefined)
→ -4	u	-1%	-1%	x	-18%
- Cc1ccc2nc(Nc3cccc(C(F)(F)F)c3)c3nnnn3c2c1
→ x	20%	-1%	-8%	34%	9%
- CCC(C(=O)Nc1ccccc1)n1nc(-c2cc(C)ccc2C)ccc1=O (centres undefined)
→ x	-16%	4%	-1%	-1%	-8%
- Cc1ccc(NC(=O)CN2C(=O)C(c3ccc(F)cc3)=NC23CCCCC3)c(C)c1
→ x	-27%	5%	u	-2%	-10%
- Cc1cccc(NC(=O)CN2C(=O)C(c3ccc(F)cc3)=NC23CCCCCC3)c1C
→ x	23µM*	2%	24%	-3%	-17%
- Cc1ccccc1CNC(=O)c1oc2c(c1C)-c1[nH]ncc1CC2
→ x	-3%	4%	0%	u	-2%
- COc1ccc(OC)c(CNC(=O)Cn2ncc3c([nH]c4ccc(C)cc43)c2=O)c1
→ x	u	1%	-1%	-10%	-3%
- Cc1nn(-c2ccccc2)c2nc(-c3ccco3)cc(C(=O)O)c12
→ 2	-5%	4%	-5%	-23%	-2%
- Cc1nn(-c2cccc(Cl)c2)c2nc(-c3ccco3)cc(C(=O)O)c12
→ 2	-4%	8%	-4%	14µM*	0%
- COC(=O)c1ccc(NC(=O)C2CCN(C(=O)c3cc(OC)c(OC)c(OC)c3)CC2)cc1
→ 2	5%	0%	1%	-3%	-6%
- COc1ccc(C(=O)N2CCN(c3nc4ccccc4o3)CC2)cc1OC
→ -1	18µM*	0%	6%	0%	2%
- COc1ccc(C(=O)N2CCN(C(=O)c3ccc(-c4ccccc4)cc3)CC2)cc1OC
→ 0	13µM*	0%	-8%	x	1%
- CCOC(=O)c1ccc(NC(=O)C2CCN(C(=O)c3ccc(OC)c(OC)c3)CC2)cc1
→ -1	23µM*	7%	1%	-3%	-12%
- O=S1(=O)CCOC[C@H](c2ccccc2)N1Cc1ccc(F)cc1
→ x	x	x	x	1%	x
- O=[S+]([O-])(c1c(F)cccc1F)N1CCN([S+](=O)([O-])c2cccc3nonc23)CC1
→ x	14%	x	x	x	-2%
- Cc1nc(-c2ccc([S+](=O)([O-])N3CCN([S+](=O)([O-])c4c(F)cccc4F)CC3)s2)cs1
→ x	4%	x	x	x	0%
- Cc1oc2ccc(O)c(CN3CCN(C)CC3)c2c1C(=O)Nc1ccccc1
→ x	23%	7%	-1%	-2%	1%

3 compounds already listed, arranged by length of the SMILES, rising:
The line under a structure holds: IL2 activator	Nrf2 block	Nrf2 activator	miR-21 reporter	ClpP mod	A549 viability
- Cc1ccc2nc(Nc3cccc(C(F)(F)F)c3)c3nnnn3c2c1
→ x	20%	-1%	-8%	34%	9%
- CC(C)C(c1nnnn1Cc1ccccc1)N(CCCO)Cc1cc2cc3c(cc2[nH]c1=O)OCO3 (centres undefined)
→ 0	-10%	1%	-15%	32µM*	0%
- Cc1nc(-c2ccc([S+](=O)([O-])N3CCN([S+](=O)([O-])c4c(F)cccc4F)CC3)s2)cs1
→ x	4%	x	x	x	0%

Further compounds follow.
The line under a structure holds: IL2 activator	Nrf2 block	Nrf2 activator	miR-21 reporter	ClpP mod	A549 viability
- Fc1ccc(C2=CC(c3ccco3)n3nnnc3N2)cc1 (centres undefined)
→ 1	u	13µM*	0%	x	-11%
- O=C1c2ccccc2C(=O)N1c1nc(-c2ccc(F)cc2)cs1
→ x	x	x	x	0%	x
- O=C(CSc1n[nH]c(-c2ccc(S(=O)(=O)N3CCCCC3)cc2)n1)Nc1nccs1
→ -1	u	4%	9%	28µM*	-7%
- Cn1c(SCC(=O)Nc2nccs2)nnc1-c1ccc(S(=O)(=O)N2CCCC2)cc1
→ -2	x	-1%	2%	-3%	-10%
- Cc1ccc(Cn2c(SCc3ccc(C(=O)N4CCCCCC4)cc3)nc3ccncc32)cc1
→ x	15µM*	0%	22%	-6%	-14%

Quoted at random: two entries already listed, in no set order.
The line under a structure holds: IL2 activator	Nrf2 block	Nrf2 activator	miR-21 reporter	ClpP mod	A549 viability
- Cn1c(SCC(=O)Nc2nccs2)nnc1-c1ccc(S(=O)(=O)N2CCCC2)cc1
→ -2	x	-1%	2%	-3%	-10%
- O=C(CSc1n[nH]c(-c2ccc(S(=O)(=O)N3CCCCC3)cc2)n1)Nc1nccs1
→ -1	u	4%	9%	28µM*	-7%

Source: PubChem BioAssay (National Center for Advancing Translational Sciences (NCATS))
